The values that follow come from PubChem BioAssay AID602329 (Broad Institute, 2012).

Sequences of proteins named here, by UniProt entry; tags and fusion partners are left off.
UniProt Q92698, whole entry: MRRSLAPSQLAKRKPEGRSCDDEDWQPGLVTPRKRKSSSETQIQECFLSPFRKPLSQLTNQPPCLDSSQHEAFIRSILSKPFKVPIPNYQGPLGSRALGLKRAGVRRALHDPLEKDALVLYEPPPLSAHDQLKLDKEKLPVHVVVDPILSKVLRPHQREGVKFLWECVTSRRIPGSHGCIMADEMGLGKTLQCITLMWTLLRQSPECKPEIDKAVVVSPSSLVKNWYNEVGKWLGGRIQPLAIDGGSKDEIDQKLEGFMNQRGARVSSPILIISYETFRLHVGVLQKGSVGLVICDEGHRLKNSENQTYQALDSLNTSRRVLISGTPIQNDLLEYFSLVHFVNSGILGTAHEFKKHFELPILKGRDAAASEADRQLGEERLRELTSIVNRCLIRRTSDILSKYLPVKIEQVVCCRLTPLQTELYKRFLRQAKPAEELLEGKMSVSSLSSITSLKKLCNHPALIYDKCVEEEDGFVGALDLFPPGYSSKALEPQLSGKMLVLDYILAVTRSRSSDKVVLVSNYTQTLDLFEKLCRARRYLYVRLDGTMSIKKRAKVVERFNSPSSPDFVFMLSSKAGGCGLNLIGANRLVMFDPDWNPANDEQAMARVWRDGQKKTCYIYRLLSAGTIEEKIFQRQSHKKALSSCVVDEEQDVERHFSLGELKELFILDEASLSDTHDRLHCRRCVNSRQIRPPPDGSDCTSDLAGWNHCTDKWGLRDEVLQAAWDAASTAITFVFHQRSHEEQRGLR

Each structure is given as a SMILES string. Only a part is listed here, and it is no random draw. Activity calls are given as the source filed them.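 How the source made its calls: active means mean normalized replicate activity at least 40 and at least half of replicates scoring 40 or more; inconclusive means only one of the two criteria met; inactive means mean below 40 and under half of replicates reaching 40.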

The target in this assay is DNA repair and recombination protein RAD54-like (Homo sapiens) (UniProt Q92698). Nature of the assay: inhibitors of human RAD54 branch migration, primary screen, biochemical, fluorescence, single point (AID 602329).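 Further: 0% = median of neutral control wells and 100% = median of positive control wells; inhibitors cause a drop in the FAM fluorescence signal.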 The following applies: RAD54 Holliday junction branch migration, FAM/BHQ fluorescence; at 10.4 µM; stronger effect = higher value.
Regarding `CCCOc1ccc(C(=O)NCC2(N(C)C)CCCCC2)cc1OC`, the inhibition (in general, the change of the read-out against control, counted positive when it falls) was inactive: -2.65%.

For `Cc1ccc(C(=O)NCC2(N(C)C)CCCCC2)o1`, the inhibition was inactive: 9.59%.

Regarding `COc1ccc(C(c2nnnn2C2CCCC2)N2CCC(n3c(=O)[nH]c4ccccc43)CC2)cc1` (stereo unspecified), the inhibition is inactive: 0.791%.

Turning to `CN1CCC(Nc2cccc(F)c2)CC1`, the inhibition was inactive: 5.46%.

With `O=C(NCC1(N2CCCCC2)CCCCC1)c1cncc(Br)c1`, the inhibition is inactive: -2.91%.

As to `CCCCn1nnnc1C(c1ccnc2ccccc12)N1CCC(n2c(=O)[nH]c3ccccc32)CC1` (stereo unspecified), the inhibition is inactive: 8.04%.

In the case of `CCC(c1nnnn1C(C)(C)C)N1CCC(n2c(=O)[nH]c3ccccc32)CC1` (stereo unspecified), the inhibition is inactive: -11.9%.

As for `O=C(NCC1(N2CCOCC2)CCCCC1)c1cc(F)c(F)cc1Cl`, the inhibition is inactive: 3.04%.

`COc1cc(OC)c(C(=O)NCC2(N(C)C)CCCCC2)cc1OC`: the inhibition is inactive: 1.79%.

`CN(C)c1cccc(C(=O)NCC2(N3CCCCC3)CCCCC2)c1`: the inhibition is inactive: -3.92%.

As to `CCCCn1nnnc1C(c1ccccc1OC(F)(F)F)N1CCC(n2c(=O)[nH]c3ccccc32)CC1` (stereo unspecified), the inhibition is inactive: -7.56%.

Turning to `CN1CCN(CCOC(=O)C(O)(c2ccccc2)c2ccccc2)CC1`, the inhibition was inactive: -0.125%.

With `CCCCn1nnnc1C(c1cccc2ccccc12)N1CCC(n2c(=O)[nH]c3ccccc32)CC1` (stereo unspecified), the inhibition is inactive: 3.78%.

As to `O=C(NCC1(N2CCOCC2)CCCCC1)c1cc(=O)[nH]c2ccccc12`, the inhibition was inactive: -5.3%.

For the compound `COc1cc(C(=O)NCC2(N3CCCCC3)CCCCC2)ccc1OC(F)F`, the inhibition is inactive: -0.954%.

`O=C(NCC1(N2CCCCC2)CCCCC1)c1cccc(C(F)(F)F)c1`: the inhibition is inactive: -5.68%.

For `CSc1ccc(C(=O)NCC2(N3CCOCC3)CCCCC2)cc1`, the inhibition was inactive: 9.47%.

As to `O=c1[nH]c2ccccc2n1C1CCN(C(c2ccccc2OC(F)(F)F)c2nnnn2C2CCCC2)CC1` (stereo unspecified), the inhibition was inactive: -3.99%.

Take `N#CC1(Nc2ccccc2)CCN(CCc2ccccc2)CC1`: the inhibition is inactive: 3.24%.

As to `CCN1CCC(Nc2ccc(Cl)cc2)CC1`, the inhibition was inactive: 1.37%.

Take `O=C(NCC1(N2CCCCC2)CCCCC1)c1ccc(OC(F)F)cc1`: the inhibition is inactive: -9.1%.

Regarding `CC(C)(C)n1nnnc1C(c1ccccc1OC(F)(F)F)N1CCC(n2c(=O)[nH]c3ccccc32)CC1` (stereo unspecified), the inhibition is inactive: 8.72%.

As for `O=c1[nH]c2ccccc2n1C1CCN(C(c2cccc3ccccc23)c2nnnn2C2CCCC2)CC1` (stereo unspecified), the inhibition is inactive: -5.35%.

Turning to `CCOC(=O)N1CCC(Nc2cccc(C)c2)CC1`, the inhibition was inactive: -5.57%.

In the case of `COc1cc(C(=O)NCC2(N(C)C)CCCCC2)ccc1OC(F)F`, the inhibition was inactive: 1.99%.

As for `O=c1[nH]c2ccccc2n1C1CCN(C(c2ccccc2)c2nnnn2C2CCCCC2)CC1` (stereo unspecified), the inhibition is inactive: -4.31%.

`CCOC(=O)N1CCC(Nc2ccc(F)cc2)CC1`: the inhibition is inactive: 2.86%.

On to `COc1ccc(NC2CCN(CCc3ccccc3)CC2)c(OC)c1`, for which the inhibition was inactive: -2.78%.

On to `CCCCOc1ccc(C(=O)NCC2(N3CCOCC3)CCCCC2)cc1`, for which the inhibition was inactive: -8.92%.

For `CCCCn1nnnc1C(c1cc2ccccc2o1)N1CCC(n2c(=O)[nH]c3ccccc32)CC1` (stereo unspecified), the inhibition was inactive: 4.45%.

On to `O=P1(N(CCCl)CCCl)SCCCS1`, for which the inhibition was inactive: 5.52%.

Turning to `O=C(NCC1(N2CCCCC2)CCCCC1)c1ccc(F)cc1`, the inhibition was inactive: 5.6%.

With `O=C1CCN(Cc2ccccc2)CC1`, the inhibition was inactive: -6.56%.

As for `CC(C)(C)n1nnnc1C(c1ccccc1)N1CCC(n2c(=O)[nH]c3ccccc32)CC1` (stereo unspecified), the inhibition is inactive: -2.45%.

For `CCCCn1nnnc1C(c1ccc(OC)cc1)N1CCC(n2c(=O)[nH]c3ccccc32)CC1` (stereo unspecified), the inhibition was inactive: 1.43%.

Turning to `CCOC(=O)N1CCC(Nc2ccc(OC)cc2)CC1`, the inhibition is inactive: -2.31%.

On to `O=C(NCC1(N2CCCCC2)CCCCC1)c1ccc(Cl)s1`, for which the inhibition was inactive: 0.212%.

Regarding `O=c1[nH]c2ccccc2n1C1CCN(C(c2cc3ccccc3o2)c2nnnn2C2CCCCC2)CC1` (stereo unspecified), the inhibition was inactive: -10.4%.

In the case of `O=C(OC1CN2CCC1CC2)C1c2ccccc2Oc2ccccc21` (stereo unspecified), the inhibition is inactive: -11.9%.

For the compound `Cc1cc(C)cc(N(C(=O)c2ccccc2)C2CCN(C(=O)OC(C)(C)C)CC2)c1`, the inhibition is inactive: -5.06%.

In the case of `O=C(NCC1(N2CCCCC2)CCCCC1)c1ccc(Cl)nc1`, the inhibition is inactive: -5.54%.

`O=c1[nH]c2ccccc2n1C1CCN(C(c2ccccc2OC(F)(F)F)c2nnnn2C2CCCCC2)CC1` (stereo unspecified): the inhibition was inactive: -0.723%.

With `Cc1cccc(NC2(C#N)CCN(Cc3ccccc3)CC2)c1`, the inhibition was inactive: -5.99%.

For `CSc1ccccc1C(=O)NCC1(N2CCCCC2)CCCCC1`, the inhibition was inactive: -0.558%.

Take `CCCCn1nnnc1C(CC)N1CCC(n2c(=O)[nH]c3ccccc32)CC1` (stereo unspecified): the inhibition was inactive: -15%.

Turning to `O=C(NCC1(N2CCCCC2)CCCCC1)c1cccs1`, the inhibition is inactive: -3.12%.

Regarding `CCCCn1nnnc1C(c1cccs1)N1CCC(n2c(=O)[nH]c3ccccc32)CC1` (stereo unspecified), the inhibition was inactive: 5.97%.

As for `O=C(NCC1(N2CCCCC2)CCCCC1)c1ccc(=O)[nH]c1`, the inhibition is inactive: -4.35%.

With `CC(C)(C)OC(=O)N1CCC(N(C(=O)c2ccccc2)c2ccc(F)cc2)CC1`, the inhibition was inactive: -8.11%.

With `CCC(c1nnnn1C1CCCC1)N1CCC(n2c(=O)[nH]c3ccccc32)CC1` (stereo unspecified), the inhibition was inactive: -4.43%.

Consider `COc1ccc(C(=O)NCC2(N3CCCCC3)CCCCC2)cc1`, for which the inhibition is inactive: -12.7%.

Regarding `CN1CCC(Nc2ccc(Cl)cc2)CC1`, the inhibition was inactive: -11.9%.

For the compound `CCC(CO)(C(=O)OC1CN2CCC1CC2)c1ccccc1` (stereo unspecified), the inhibition was inactive: -6.93%.

For the compound `COc1cccc(C(=O)N(c2cc(C)cc(C)c2)C2CCN(C(=O)OC(C)(C)C)CC2)c1`, the inhibition was inactive: -10.8%.

Consider `COc1cc(OC)cc(C(=O)NCC2(N3CCOCC3)CCCCC2)c1`, for which the inhibition was inactive: 2.99%.

In the case of `COc1cccc(C(c2nnnn2C2CCCC2)N2CCC(n3c(=O)[nH]c4ccccc43)CC2)c1OC` (stereo unspecified), the inhibition is inactive: 2.89%.

In the case of `O=c1[nH]c2ccccc2n1C1CCN(C(c2cc3ccccc3o2)c2nnnn2C2CCCC2)CC1` (stereo unspecified), the inhibition is inactive: -3.09%.

As for `CCCOc1ccc(C(=O)NCC2(N(C)C)CCCCC2)cc1`, the inhibition was inactive: -1.78%.

Turning to `O=C(O)C1(Nc2ccccc2)CCN(Cc2ccccc2)CC1`, the inhibition was inactive: 6.13%.

On to `CN1CCC(Nc2ccc(F)c(Cl)c2)CC1`, for which the inhibition was inactive: -6.91%.

On to `CCOc1ncccc1C(=O)NCC1(N2CCOCC2)CCCCC1`, for which the inhibition was inactive: -15.8%.

As to `Cn1c(=O)[nH]cc(N(CCCl)CCCl)c1=O`, the inhibition was inactive: -10.8%.

Regarding `O=C(NCC1(N2CCCCC2)CCCCC1)c1ccco1`, the inhibition is inactive: -5.37%.

Take `COc1ccc(C(c2nnnn2C2CCCCC2)N2CCC(n3c(=O)[nH]c4ccccc43)CC2)cc1` (stereo unspecified): the inhibition is inactive: -2.64%.

Take `CC(C)(C)n1nnnc1C(c1ccnc2ccccc12)N1CCC(n2c(=O)[nH]c3ccccc32)CC1` (stereo unspecified): the inhibition is inactive: 2.18%.

With `Cc1ccccc1NC1(C#N)CCN(Cc2ccccc2)CC1`, the inhibition was inactive: -9.24%.

On to `Cc1ccc(NC2(C#N)CCN(Cc3ccccc3)CC2)cc1`, for which the inhibition is inactive: -5.35%.

For `Fc1ccccc1NC1CCN(Cc2ccccc2)CC1`, the inhibition was inactive: 1.69%.

Consider `Cc1ccc(C(=O)NCC2(N3CCCCC3)CCCCC2)o1`, for which the inhibition is inactive: -1.69%.

For `COc1cc(OC)cc(C(=O)NCC2(N3CCCCC3)CCCCC2)c1`, the inhibition is inactive: -1.26%.

For the compound `O=c1[nH]c2ccccc2n1C1CCN(C(c2ccnc3ccccc23)c2nnnn2C2CCCCC2)CC1` (stereo unspecified), the inhibition is inactive: 9.87%.

Take `CCC(c1nnnn1C1CCCCC1)N1CCC(n2c(=O)[nH]c3ccccc32)CC1` (stereo unspecified): the inhibition is inactive: 8.4%.

In the case of `COc1cccc(C(c2nnnn2C2CCCCC2)N2CCC(n3c(=O)[nH]c4ccccc43)CC2)c1OC` (stereo unspecified), the inhibition was inactive: 5.94%.

On to `CC(=O)N(c1ccccc1)C1CCNCC1`, for which the inhibition is inactive: 7.9%.

With `CC(C)(C)n1nnnc1C(c1cccc2ccccc12)N1CCC(n2c(=O)[nH]c3ccccc32)CC1` (stereo unspecified), the inhibition was inactive: 1.99%.

In the case of `O=c1[nH]c2ccccc2n1C1CCN(C(c2ccccc2)c2nnnn2C2CCCC2)CC1` (stereo unspecified), the inhibition is inactive: -6.79%.

Regarding `CCCN1CCC(Nc2cc(OC)cc(OC)c2)CC1`, the inhibition was inactive: 13.6%.

In the case of `c1ccc(CN2CCC(Nc3ccccc3)CC2)cc1`, the inhibition was inactive: -4.77%.

Regarding `CN(C)C1(CNC(=O)c2cccc(C#N)c2)CCCCC1`, the inhibition was inactive: 0.695%.

For `CC(C)(C)OC(=O)N1CCC(N(C(=O)c2ccccc2)c2ccc(Cl)cc2)CC1`, the inhibition is inactive: 8.26%.

As for `N#Cc1ccc(C(=O)NCC2(N3CCCCC3)CCCCC2)cc1`, the inhibition is inactive: -1.62%.

Turning to `CCCCn1nnnc1C(c1cccc(OC)c1OC)N1CCC(n2c(=O)[nH]c3ccccc32)CC1` (stereo unspecified), the inhibition is inactive: 3.5%.

Turning to `O=c1[nH]c2ccccc2n1C1CCN(C(c2cccs2)c2nnnn2C2CCCC2)CC1` (stereo unspecified), the inhibition is inactive: 6.6%.

In the case of `N/C(=N\O)c1c(N)no[n+]1[O-]`, the inhibition was inactive: -5.1%.

Take `CCOC(=O)N1CCC(Nc2ccc(C)cc2)CC1`: the inhibition is inactive: -3.22%.

Take `COc1cccc(C(c2nnnn2C(C)(C)C)N2CCC(n3c(=O)[nH]c4ccccc43)CC2)c1OC` (stereo unspecified): the inhibition was inactive: -4.81%.

Turning to `O=c1[nH]c2ccccc2n1C1CCN(C(c2ccnc3ccccc23)c2nnnn2C2CCCC2)CC1` (stereo unspecified), the inhibition was inactive: -2.33%.

Consider `O=c1[nH]c2ccccc2n1C1CCN(C(c2cccs2)c2nnnn2C2CCCCC2)CC1` (stereo unspecified), for which the inhibition was inactive: -2.55%.

For the compound `O=C(NCC1(N2CCOCC2)CCCCC1)c1cc(Br)ccc1Cl`, the inhibition is inactive: -5.93%.

For the compound `COc1cc(C(=O)NCC2(N3CCOCC3)CCCCC2)cc(OC)c1C`, the inhibition was inactive: -5.1%.

For `CCCCn1nnnc1C(c1ccccc1)N1CCC(n2c(=O)[nH]c3ccccc32)CC1` (stereo unspecified), the inhibition is inactive: 6.61%.
